Source: EP4129319A1, “PORE-FORMING ANTIMICROBIAL PEPTIDES” (priority 2021, dated 2023)

Columns and labels:
Calcein leakage assay = assay type: biochemical; details: POPC:POPG (1:1 mol/mol) LUVs
Description: Chemicals. […] (Prague, Czech Republic), and Caslo ApS (Kongens Lyngby, Denmark). […] The bacterial stock was stored at -80°C.
Calcein leakage assay. Pore-forming activity of the peptides was tested by their ability to leak the self-quenching fluorescent dye calcein entrapped within POPC:POPG (1:1 mol/mol) large unilamellar vesicles (LUVs). After mixing DiD to the lipid mixture (in the ratio 1:500 mol/mol), a thin lipid film was created by evaporating of the chloroform, traces of which were removed by desiccating overnight. The lipid film was then dissolved in calcein buffer, followed by vigorous vortexing. The lipid suspension was subsequently subjected to 10 freeze-thaw cycles. To obtain uniform LUVs, the sample was passed 50 times back and forth through an extruder stacked with 100 nm pore size polycarbonate membrane filter. Afterwards, the untrapped calcein was removed on a HiTrap Desalting Column (with Sephadex G-25 Superfine resin) by washing with PBS buffer. The concentration of the lipid suspension was then adjusted to 0.02 mM. The concentration of the peptide solution was 0.1 mM. The inventors monitored the peptide-induced release of calcein from LUVs by the increase in fluorescence intensity after adding increasing amounts of peptides to the LUVs under constant stirring at 25 °C. The investigated range of peptide/lipid molecular ratio was from 1:100 to 1:10. The excitation and emission wavelengths were set to 495 nm and 520 nm, respectively. Maximum fluorescence intensity was obtained by disrupting all the vesicles in the end by adding 10% Triton X-100. Experiments were performed in triplicates with independently prepared lipid vesicles.

[1] = Neutral red uptake assay (cytotoxicity); assay type: cell-based; details: highest tested concentration 150 µM; read-out: cytotoxic concentration against human dermal fibroblasts (no effect on viability up to)
Description: Neutral red uptake assay. To evaluate the cytotoxicity of the peptides against human dermal fibroblast (HDF) cell lines, the inventors purchased the neutral red uptake assay from Essence Line (Praha, Czech Republic). The initial cell culture was sub-cultured in supplemented Dulbecco's Modified Eagle Medium (DMEM) and diluted to a cell density of 1 × 10^5 cells/mL. The diluted culture was then seeded into the wells (1 × 10^4

For “KKKKVKKVVKKVFSFVDSVDSDVSDVKKKK-NH2 [KDFC16+9SV-NH2]”, the “Extent of leakage (in percentage) at increasing peptide-to-lipid ratio (mol/mol) 1:10” value (Calcein leakage assay; peptide-to-lipid ratio 1:10 (mol/mol)) was “No leakage”, the “Extent of leakage (in percentage) at increasing peptide-to-lipid ratio (mol/mol) 1:20” value (Calcein leakage assay; peptide-to-lipid ratio 1:20 (mol/mol)) was “No leakage” and the “Extent of leakage (in percentage) at increasing peptide-to-lipid ratio (mol/mol) 1:50” value (Calcein leakage assay; peptide-to-lipid ratio 1:50 (mol/mol)) was “No leakage”. The “Extent of leakage (in percentage) at increasing peptide-to-lipid ratio (mol/mol) 1:100” value (Calcein leakage assay; peptide-to-lipid ratio 1:100 (mol/mol)) was “No leakage” and the CC50 [1] was over 150 µM.

Ends that are not written are not given here.
